Measurements published in patent US6810371B1 (priority 1906, dated 2004).

Experimental: Finally, if it is judged to be safe at S8, S12, or S15, overall safety is evaluated. Here, the sum of respective reciprocals of the previously determined inhalation safety coefficient, percutaneous safety coefficient, and oral safety coefficient is determined, and the reciprocal of thus determined value is defined as an overall safety coefficient (S16).
inhalation safety coefficient=inhalation non-influential amount [mg/kg/day]/estimated exposure amount in inhalation [mg/kg/day]
percutaneous safety coefficient=percutaneous non-influential amount [mg/kg/day]/estimated percutaneous exposure amount [mg/kg/day]
oral safety coefficient=oral non-influential amount [mg/kg/day]/estimated oral exposure amount [mg/kg/day]

CC(C)=CC1[C@@H](C(=O)OCN2C(=O)C3=C(CCCC3)C2=O)C1(C)C (stereo in doubt) [d-tetramethrin]
INHALATION (WINDOW CLOSED) safety coefficient (ADULT): 3,190
INHALATION (WINDOW OPEN) safety coefficient (ADULT): 15,900
PERCUTANEOUS safety coefficient (ADULT): 2,280,000
TOTAL (WINDOW CLOSED) safety coefficient (ADULT): 3,180
TOTAL (WINDOW OPEN) safety coefficient (ADULT): 15,800
INHALATION (WINDOW CLOSED) safety coefficient (INFANT): 2,880
INHALATION (WINDOW OPEN) safety coefficient (INFANT): 14,400
ORAL safety coefficient (INFANT): 100,000
PERCUTANEOUS safety coefficient (INFANT): 465,000
TOTAL (WINDOW CLOSED) safety coefficient (INFANT): 2,780
TOTAL (WINDOW OPEN) safety coefficient (INFANT): 12,200

Read-outs that look alike come from different tables or passages of the source.
